Reference: patent US10023593B2, “ALK kinase inhibitor, and preparation method and uses thereof” (BEIJING PEARL BIOTECHNOLOGY LIMITED LIABILITY COMPANY, priority 2014, dated 2018)
pIC50: −log10 of the molar value.

How the values were obtained:
NCI-H2228 cell line = assay: CellTiter-Glo cell proliferation inhibition on NCI-H2228 cell line; format: cell-based; conditions: Homo sapiens, NCI-H2228, 96 h, NCI-H2228 cells, 5000 cells/well, 4 days drug treatment
Experimental: 3. Cell Proliferation Inhibitory Activities of the Compounds of the Present Invention on NCI-H2228 Cell Line
? experimental method ? CellTiter-Glo® Luminescent Cell Viability Assay kit from Promega company was used to detect cell proliferation inhibitory activities of the compounds on NCI-H2228 cell line.
(§1) ? instrument ? Envision 2104 plate reader from PerKinElmer company; Vi-Cell XR cell counter from Beckman Counter company; MCO-18AIC CO2 incubator from SANYO company.
? experiment material ? CellTiter-Glo® Luminescent Cell Viability Assay Kit (Promega company, catalog No. G7573); NCI-H2228 cell line (ATCC, catalog No. CRL-5935); RPMI-1640 medium (HyClone company, catalog No. SH30809.01B); fetal bovine serum (FBS) (Gibco company, catalog No. 10099-141); trypsin (Trypsin) (Gibco company, catalog No. 25200-072); PBS (HyClone company, catalog No. SH30256.01B); 96 wells cell culture plate (Corning company, catalog No. 3610); DMSO (AMRESCO company, catalog No. 0231); 96 wells plates (for diluting compounds) (CITOTEST company, catalog No. Ref36020096D);
? experimental condition ? NCI-H2228 cells in exponential growth phase were collected and treated with trypsin (Trypsin), and viable cells were counted by Vi-Cell XR cell counter. Cell suspension was adjusted to 62500 cells/ml with culture medium (RPMI-1640+10% FBS). 80 μl cell suspension was added into each well of 96 wells cell culture plate so that the final cell number of NCI-H2228 cells was 5000 cells/well. […] After placing at room temperature for 10 minutes, luminescence value was measured by PerkinElmer Envision 2104 plate reader and the data was analyzed. […]
? data analysis ? Luminescence value of DMSO solvent control (Vvehicle control, which is the mean luminescence value from DMSO solvent control group)
(§2) Tested luminescence value (Vsample, which is the luminescence value from given concentration of compounds group) Inhibition rate (%)=(1−Vsample/Vvehicle control)×100
(§3) ? data processing ? IC50 of compounds was calculated by using XLfit program in Excel.

Karpas-299 cell line = assay: CellTiter-Glo cell proliferation inhibition on Karpas-299 cell line; format: cell-based; conditions: Homo sapiens, 96 h, Karpas-299 cells, 5000 cells/well, 4 days drug treatment
Experimental: 4. Cell Proliferation Inhibitory Activities of the Compounds of the Present Invention on Karpas-299 Cell Line
? experimental method ? CellTiter-Glo® Luminescent Cell Viability Assay kit from Promega company was used to detect cell proliferation inhibitory activities of the compounds on Karpas-299 cell line.
as §1
? experiment material ? […]
? experimental condition ? Karpas-299 cells in exponential growth phase were collected and viable cells were counted by Vi-Cell XR cell counter. […] After placing at room temperature for 10 minutes, luminescence reading value was measured with PerkinElmer Envision 2104 plate reader and the data was analyzed. […]
Luminescence value of DMSO solvent control (Vvehicle control, which is the mean luminescence value from DMSO solvent control group)
as §2, §3

SMILES	pIC50 (NCI-H2228 cell line)	pIC50 (Karpas-299 cell line)
Cc1cc(Nc2ncc(Cl)c(Nc3cn(C)nc3S(=O)(=O)C(C)C)n2)c(OC2CC2)cc1C1CCN(C)CC1 [Final product 51]	7.28	–
CC(C)S(=O)(=O)c1nn(C)cc1Nc1nc(Nc2cc(F)c(C3CCN(C)CC3)cc2OC2CC2)ncc1Cl [Final product 44]	–	7.77
Cc1cc(Nc2ncc(Cl)c(Nc3cn(C)nc3S(=O)(=O)C(C)C)n2)c(OC(C)C)cc1C1CCN(C)CC1 [Final product 80]	7.02	–
Cc1cc(Nc2ncc(Cl)c(Nc3cn(C)nc3S(=O)(=O)C(C)C)n2)c(OC2CC2)cc1C1CCN(C(C)C)CC1 [Final product 123, 5-chloro-N^2-[2-cyclopropoxy-4-(1-isopropylpiperidin-4-yl)-5-methyl-phenyl]-N^4-[1-methyl-3-(isopropylsulfonyl)-1H-pyrazol-4-yl]-pyrimidin-2,4-diamine]	7.24	–
